Structures are written as SMILES.

The experiment concerns influenza A/Puerto Rico/8/1934 (H1N1; PR8). The experiment is described as follows: microbe, parasite or virus in culture. The settings on record: H1N1|PR8, MDCK, 24 h, read-out: antiviral activity EC50.

Consider `CCOC(=O)C1=C[C@@H](OC(CC)CC)[C@H](NC(C)=O)[C@@H](N)C1` [oseltamivir], for which the EC50 stood at 15 nM.

For orientation: EC50 means the midpoint of the concentration-response curve.
